Measurements as given in patent publication US12023367B2, “Immunomodulation for the long term prevention and treatment of autoimmune diseases and foreign tissue rejection” (University of Louisville Research Foundation, Inc., priority 2015, dated 2024).

Experiments:
[1] = system: STZ diabetic C57BL/6 mice; assay: Intraportal allogeneic islet transplantation, SA-FasL and IL-2; format: in vivo; settings: soluble IL-2 with SA-FasL on the surface of islet
Procedure: FIG. 6A-B. Combined use of SA-FasL and IL-2 prevents allogeneic islet graft rejection. BALB/c islets were transplanted intraportally into STZ diabetic age-matched males and females C57BL/6 mice. Recipients were treated with the indicated regimens of SA-FasL and IL-2 and monitored for graft rejection. In selected groups islets were either engineered with SA-FasL (SA-FasL-islet) or both SA-FasL and SA-IL2 (SA-FasL/SA-IL2-islet. Mice injected with soluble SA served as controls. Control islet and islet+IL-2 groups are the same for both panels for comparison purposes.
C57BL/6 mice were treated with intravenous injection of streptozotocin (200 mg/kg) and diabetes was confirmed by two consecutive blood glucose readings higher than 300 mg/dl. Pancreatic islets were harvested from BALB/c mice, cultured overnight, and then either left unmodified or engineered with SA-FasL alone or in combination with SA-IL2. These islets were then immediately transplanted intraportally into diabetic mice (450-550 islets/mouse). Mice were then treated with the indicated proteins and doses. Animals were monitored for diabetes, and those with two consecutive daily measurements of ≥250 mg/dl blood glucose level were considered diabetic and confirmation of graft failure. […] Importantly, co-display of both SA-FasL and SA-IL2 was also effective in preventing rejection of ˜40% of grafts (FIG. 6B).

[2] = system: C57BL/6 recipients of allogeneic BALB/c hearts; assay: Cardiac allograft survival, BALB/c-to-C57BL/6 model; format: in vivo, mice
Procedure: FIG. 7. Synergy between SA-FasL and IL-2 in inducing tolerance to cardiac allografts in the BALB/c-to-C57BL/6 model. C57BL/6 recipients of allogeneic BALB/c hearts were treated i.p. with the indicated doses of IL-2 and SA-FasL and mice were monitored for graft survival.
We next tested if SA-FasL as a biologic can work as an immunomodulator to prevent rejection of vascularized solid grafts. Heart transplantation from BALB/c into C57BL/6 mice was used as a stringent allogeneic heart graft model. C57BL/6 recipients of allogeneic BALB/c hearts were treated with a short course of IL-2 (7 doses) and SA-FasL (15 doses) without any other manipulation. […] However, the combination of both molecules had robust tolerance effects with only 1 out of 9 grafts showing delayed rejection, whereas the rest survived for a 100-day observation period (data is from >3 independent experiments and hearts were scored in blind fashion by 2 individuals).

Substance: IL-2: human IL-2 obtained commercially or produced in house in insect cells with a 6xHis tag
- prevention of graft rejection [1]: prevent graft rejection in all graft recipients
- effect on cardiac graft survival, monotherapy ([2]; IL-2 7 doses or SA-FasL 15 doses i.p., no other manipulation): did not have a significant effect
- induction of tolerance ([2]; IL-2 by itself): no effect on inducing tolerance
